According to patent US7477053B2, “Detection of electromagnetic fields” (priority 1994, dated 2009):

Tested on: pig liver chromatin

## CNCCC(Oc1ccc(C(F)(F)F)cc1)c1ccccc1 (stereo not shown) [fluoxetine]
  Metabolized by pig liver chromatin: +
